This note sets out measurements from patent US5919918.

Experiment [1] concerns the target Human α-amylase (purchased from Sigma) (human).
Experiment [2] addresses α-amylase from guts of adult cockroaches (Blatta orientalis), crude extract (Blatta orientalis (cockroach)).

Take “SIα3 (Sorgum bicolor homologue, α-amylase inhibitor) (from UniProt P21925)”: the inhibition of α-amylase activity (method of Bernfeld, starch substrate) in experiment [1] and in experiment [2] was greater than 70% throughout.
